Data on 5 compounds can be found in US9394297B2, “Amides as pim inhibitors” (AMGEN INC., priority 2012, dated 2016).

Sequences of proteins named here, by UniProt entry; tags and fusion partners are left off. A change or cut given only in a name is not applied to a line headed by its entry.
UniProt P11309, whole entry: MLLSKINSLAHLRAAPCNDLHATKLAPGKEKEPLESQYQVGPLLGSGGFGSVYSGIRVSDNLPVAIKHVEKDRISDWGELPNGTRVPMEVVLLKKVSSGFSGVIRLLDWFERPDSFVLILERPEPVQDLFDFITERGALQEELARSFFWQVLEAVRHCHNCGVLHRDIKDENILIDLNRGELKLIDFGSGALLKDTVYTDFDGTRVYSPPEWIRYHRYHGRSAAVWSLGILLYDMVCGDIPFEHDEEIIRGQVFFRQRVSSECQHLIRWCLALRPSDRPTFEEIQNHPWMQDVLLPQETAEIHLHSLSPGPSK
UniProt Q9P1W9: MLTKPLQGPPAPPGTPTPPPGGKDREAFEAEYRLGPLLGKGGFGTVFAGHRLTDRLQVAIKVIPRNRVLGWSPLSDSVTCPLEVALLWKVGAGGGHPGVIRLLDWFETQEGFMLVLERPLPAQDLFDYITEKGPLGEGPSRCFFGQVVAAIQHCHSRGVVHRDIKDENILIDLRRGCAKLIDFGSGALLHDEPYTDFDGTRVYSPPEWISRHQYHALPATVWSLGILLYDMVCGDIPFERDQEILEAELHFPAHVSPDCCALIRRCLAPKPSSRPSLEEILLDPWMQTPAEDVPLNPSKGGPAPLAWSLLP

What all share (format): biochemical
For experiment [1], the target named is T1, Pim-1 (Homo sapiens (Human), UniProt P11309). The experiment can be described thus: Pim enzyme assay (HTRF, 96-well), Pim-1. The note with it: full length recombinant Pim-1, biotinylated-BAD (S112) peptide, 10-point curve, 2 h RT, read-out: Pim-1 IC50 IP. On the technique in general: Time-resolved FRET reads energy transfer from a long-lived donor to a nearby acceptor.

Experiment [2] has as its target T2, Pim-2 (Homo sapiens (Human), UniProt Q9P1W9). The experiment in a line: Pim-Mn enzyme assay (HTRF, 384-well), Pim-2. The note with it: Pim-2 enzyme 0.5 pM, ATP 1.5 μM, BAD (S112) 0.5 μM, 22-point curve, read-out: Pim-2-Mn IC50 IP.
Experiment [3] addresses T2, Pim-2. The experiment in a line: Pim enzyme assay (HTRF, 96-well), Pim-2. The note with it: full length recombinant Pim-2, biotinylated-BAD (S112) peptide, 10-point curve, 45 min RT, read-out: Pim-2 IC50 IP.
For experiment [4], the target named is T1, Pim-1. The experiment in a line: Pim-Mn enzyme assay (HTRF, 384-well), Pim-1. Particulars: Pim-1 enzyme 5 pM, ATP 1.5 μM, BAD (S112) 0.5 μM, 22-point curve, read-out: Pim-1-Mn IC50 IP.

As for `Cc1nc2cccc(-c3cc4c([nH]3)CCNC4=O)c2nc1NC1CCC(=O)NC1` (racemic) [Example 199, rac-2-(2-methyl-3-((6-oxopiperidin-3-yl)amino)quinoxalin-5-yl)-6,7-dihydro-1H-pyrrolo[3,2-c]pyridin-4(5H)-one], the results for the half-maximal inhibitory concentration (IC50) in experiment [1], in experiment [2] and in experiment [3] were 28.2 nM, 26.2 nM and 50 nM, respectively.

On to `Cc1nc2cccc(-c3cc4n(c3)CCNC4=O)c2nc1NC1CC1` [Example 233, 7-(3-(cyclopropylamino)-2-methylquinoxalin-5-yl)-3,4-dihydropyrrolo[1,2-a]pyrazin-1(2H)-one 2,2,2-trifluoroacetate], for which the IC50 turned out to be 6.9 nM in experiment [2] and 16.4 nM in experiment [3].

Turning to `CCC1CNC(=O)c2cc(-c3cccc4ccc(Oc5ccccc5)nc34)[nH]c21` (racemic) [Example 23, rac-7-ethyl-2-(2-phenoxyquinolin-8-yl)-6,7-dihydro-1H-pyrrolo[3,2-c]pyridin-4(5H)-one], in experiment [3], the IC50 turned out to be 53.6 nM.

As for `Cc1cc2cccc(-c3cc4c([nH]3)CCNC4=O)c2nc1Oc1ccccc1` [Example 104, 2-(3-methyl-2-phenoxyquinolin-8-yl)-6,7-dihydro-1H-pyrrolo[3,2-c]pyridin-4(5H)-one], the figures for the IC50 in experiment [1] and in experiment [3] were 9.3 nM and 9 nM, respectively.

Take `Cc1nc2cccc(-c3cc4c([nH]3)CCNC4=O)c2nc1NC1CCCOC1` (racemic) [Example 198, rac-2-(2-methyl-3-((tetrahydro-2H-pyran-3-yl)amino)quinoxalin-5-yl)-6,7-dihydro-1H-pyrrolo[3,2-c]pyridin-4(5H)-one]: the results for the IC50 in experiment [4], in experiment [1] and in experiment [3] were 3.6 nM, 6.8 nM and 8.7 nM, respectively.

The term IC50 denotes the midpoint of a concentration-inhibition curve.
